Reference: PMC6944527 (The American Journal of Clinical Nutrition, 2019)
Where a name gives a salt, the structure may show the parent alone.

How the values were obtained:
ThTR-2 (SLC19A3) [1] = target: T1, ThTR-2 (SLC19A3) (Homo sapiens, UniProt Q9BZV2); assay: Clinical relevance ratio; conditions: based on current FDA guidelines; ratio >10
T1 sequence (Q9BZV2 1-496): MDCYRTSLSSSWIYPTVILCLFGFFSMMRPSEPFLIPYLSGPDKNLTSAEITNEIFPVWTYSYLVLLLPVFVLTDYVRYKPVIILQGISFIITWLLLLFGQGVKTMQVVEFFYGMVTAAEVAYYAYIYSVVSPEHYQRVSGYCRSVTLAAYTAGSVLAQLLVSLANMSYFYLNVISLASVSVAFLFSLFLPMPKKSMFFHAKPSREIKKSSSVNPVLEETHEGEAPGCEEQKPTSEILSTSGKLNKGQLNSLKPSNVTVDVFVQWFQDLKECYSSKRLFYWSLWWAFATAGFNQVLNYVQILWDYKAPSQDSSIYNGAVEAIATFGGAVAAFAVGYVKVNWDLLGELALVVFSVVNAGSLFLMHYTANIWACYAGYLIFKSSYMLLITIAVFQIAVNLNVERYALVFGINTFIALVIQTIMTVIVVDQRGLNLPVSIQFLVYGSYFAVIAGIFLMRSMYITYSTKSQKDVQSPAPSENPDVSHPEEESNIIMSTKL

ThTR-2 (SLC19A3) [2] = target: T1, ThTR-2 (SLC19A3)

CCN(CCO)CCCC(C)Nc1ccnc2cc(Cl)ccc12 (centres unmarked) [Hydroxychloroquine sulfate]
DDI study recommended (ThTR-2 (SLC19A3) [1]): Yes
IC50 (ThTR-2 (SLC19A3) [2]): 17 ± 5.24 µM
